# Cneo AK release: Cryptococcus neoformans cell lysis inducers, primary screen, AK release luminescence, single concentration; lysis activity, % at 15 µM; 360,000 tested, 0.2% active; C. neoformans lysis, adenylate kinase release luminescence, 4 h; normalised: neutral wells 0, clomiphene wells 100;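 active = mean lysis activity across replicates of at least 80%, whatever share of replicates individually reach that level; inactive = mean lysis activity below 80%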
#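 Material – Cryptococcus neoformans yeast cells · Quantity – 5 × 10^6 yeast cells/mL · Buffer or medium – YPD medium · Compound – single dose · Timing – 4 h static compound exposure, 37 °C, read 1 h post-reagent · Signal – adenylate kinase release luminescence · Read-out basis – lysis from increased AK signal · Benchmarks – Clomiphene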
# C2C12 statin: suppressors of statin myotoxicity in C2C12 myotubes, primary screen, cell-based, single point, plate reader; rescue of ATP level, % at 7.49 µM; 330,000 tested, 0.78% active; C2C12 myotubes + simvastatin, ATP luminescence, 48 h; scaled: DMSO 0, geranylgeraniol control 100;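 active = mean ATP rescue above about 67%, or every replicate alone reaching that limit, limit read from the data, passing the limit was not always enough; inconclusive = no clear call, values can overlap the other calls; inactive = mean under the limit and some replicate under it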;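 note: myotubes were challenged with 10 µM simvastatin during compound exposure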
# UUG fidelity: alters start codon recognition fidelity in yeast. S. cerevisiae UUG-firefly luciferase reporter, luminescence/redox ratio. activity score, % at 18.7 µM. 0.13% of 350,000 active. AID 602363;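 active = replicate mean at a twofold rise or more, about +100% in these data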;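 also: firefly luciferase made from a UUG start codon reports start codon fidelity; reporter light over untreated wells divided by growth signal over untreated wells; some hits fall short of that in this replicate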
# miR122 inh: miR-122 Renilla sensor signal increase in Huh7, primary screen, miR-122 inhibitor project, cell-based, single point, plate reader; AID 602342, 2012; 340,000 tested, 0.3% active; activation (reporter increase), % at 12.5 µM; Huh7 miR-122 Renilla luciferase sensor, 48 h; neutral wells = 0, positive control = 100;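 active = mean replicate activation score at least 90 and every replicate individually at or above 90; inconclusive = only one of the two criteria met; inactive = neither criterion met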;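 note: higher luciferase means less miR-122 activity so hits act as miR-122 inhibitors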
# Active calls of the source: *; ? = inconclusive; . = no result; [ ] = another dose, or the depositor's remark. Rows were chosen to be rich in hits. Some 1.2% of all compounds tested hit in one or more screens of this group.
SMILES,Cneo AK release,C2C12 statin,UUG fidelity,miR122 inh
C[C@H](CO)N1C[C@H](C)[C@H](CN(C)CC2CCCCC2)Oc2ccc(NC(=O)Nc3cccc4ccccc34)cc2C1=O,2.6,-23.6,-0.2,-8.9[16.7 µM]
C[C@@H]1CN([C@H](C)CO)C(=O)c2cc(-c3ccccc3)cnc2O[C@@H]1CN(C)C(=O)Cc1cccnc1,6.5,3.1,-12.5,9.4[16.7 µM]
COc1cccc(S(=O)(=O)Nc2ccc3c(c2)OC[C@H](C)N(Cc2ccccc2F)C[C@H](C)[C@H](OC)CN(C)C3=O)c1,-0.5,22.5,.,.
CO[C@@H]1CN(C)C(=O)c2cc(NS(=O)(=O)c3cccc(C)c3)ccc2OC[C@H](C)NC[C@H]1C,0.0,4.1,-1.7,22.5[16.7 µM]
COc1cccc(S(=O)(=O)Nc2ccc3c(c2)C(=O)N(C)C[C@H](OC)[C@H](C)CN[C@H](C)CO3)c1,-0.9,15.3,-12.9,-11.4[16.7 µM]
CO[C@@H]1CN(C)C(=O)c2cc(NS(=O)(=O)c3cccc(C)c3)ccc2OC[C@@H](C)NC[C@H]1C,103.9*,5.6,27.7,29.1[16.7 µM]
COc1cccc(S(=O)(=O)Nc2ccc3c(c2)OC[C@@H](C)NC[C@H](C)[C@@H](OC)CN(C)C3=O)c1,98.0*,13.3,7.4,-3.0[16.7 µM]
CO[C@@H]1CN(C)C(=O)c2ccc(NS(=O)(=O)c3ccc(Oc4ccccc4)cc3)cc2OC[C@H](C)NC[C@H]1C,98.9*,0.3,.,.
CO[C@@H]1CN(C)C(=O)c2cc(NS(=O)(=O)C3CCCCC3)ccc2OC[C@H](C)NC[C@@H]1C,85.6*,-1.8,.,.
C[C@H]1CN([C@@H](C)CO)S(=O)(=O)c2ccc(-c3cccnc3)cc2O[C@H]1CN(C)C(=O)c1ccc2c(c1)OCO2,2.9,-13.9,6.2,-2.9[16.7 µM]
CO[C@@H]1CN(C)C(=O)c2cc(NS(=O)(=O)c3ccc(C)cc3)ccc2OC[C@@H](C)N(C)C[C@@H]1C,139.0*,-7.0,9.0,1.8[16.7 µM]
CCCC(=O)Nc1ccc2c(c1)C(=O)N(C)C[C@@H](OC)[C@@H](C)CN(C(=O)CN(C)C)[C@@H](C)CO2,-1.7,-3.0,-8.0,-4.0[16.7 µM]
CCc1nc(N2CCCCC2C)c2oc3ccccc3c2n1 (centres undefined),85.7*,-28.8,-0.1,10.5
O=C(NC1CCC1)[C@H]1[C@H](CO)[C@H]2Cn3c(ccc(C4=CCCCC4)c3=O)[C@H]2N1C(=O)C1CCOCC1,-2.5,18.7,.,.
Cc1ccc(OS(=O)(=O)c2ccccc2)c(/C=N/N=C2\NC(=O)C(C)S2)c1 (centres undefined),-0.4,134.0*,-10.5,-1.0
O=C1CS/C(=N/N=C/c2ccccc2OS(=O)(=O)c2ccccc2)N1,.,-13.1,.,3.0
CCC(=O)NCCc1nc2ccccc2n1Cc1ccccc1,.,124.2*,.,-4.4
COc1ccc(S(=O)(=O)NCc2csc(C)n2)cc1,.,142.2*,.,7.5
CCOC(=O)c1cc2ccc(OC)c(OC)c2c(=O)s1,.,116.4*,.,-1.3
COc1ccc2cc(C(=O)NCCO)sc(=O)c2c1OC,1.1,3.6,-12.7,7.5
C[C@@H]1CN([C@H](C)CO)C(=O)Cc2cc(NC(=O)CCCCCC(=O)Nc3ccccc3N)ccc2O[C@@H]1CN(C)Cc1ccccc1,0.9,?,10.1,9.0[16.7 µM]
C[C@H](CO)N1C[C@H](C)[C@H](CN(C)Cc2ccc3c(c2)OCO3)Oc2ccc(NC(=O)CCCCCC(=O)Nc3ccccc3N)cc2CC1=O,-2.3,103.4*,-1.7,-0.2[16.7 µM]
C[C@H]1CN([C@@H](C)CO)C(=O)Cc2cc(NC(=O)CCCCCC(=O)Nc3ccccc3N)ccc2O[C@H]1CN(C)Cc1ccccc1,-3.3,73.4*,4.8,7.1[16.7 µM]
C[C@H](CO)N1C[C@H](C)[C@H](CN(C)Cc2ccc(-c3ccccc3)cc2)Oc2ccc(NC(=O)CCCCCC(=O)Nc3ccccc3N)cc2CC1=O,-1.0,25.1,9.0,22.6[16.7 µM]
C[C@H](CO)N1C[C@H](C)[C@@H](CN(C)Cc2ccc(-c3ccccc3)cc2)Oc2ccc(NC(=O)CCCCCC(=O)Nc3ccccc3N)cc2CC1=O,1.2,87.9*,4.4,-1.9[16.7 µM]

# Random excerpt: 4 compounds from above.
SMILES,Cneo AK release,C2C12 statin,UUG fidelity,miR122 inh
CO[C@@H]1CN(C)C(=O)c2cc(NS(=O)(=O)C3CCCCC3)ccc2OC[C@H](C)NC[C@@H]1C,85.6*,-1.8,.,.
C[C@H](CO)N1C[C@H](C)[C@H](CN(C)Cc2ccc3c(c2)OCO3)Oc2ccc(NC(=O)CCCCCC(=O)Nc3ccccc3N)cc2CC1=O,-2.3,103.4*,-1.7,-0.2[16.7 µM]
C[C@H](CO)N1C[C@H](C)[C@H](CN(C)CC2CCCCC2)Oc2ccc(NC(=O)Nc3cccc4ccccc34)cc2C1=O,2.6,-23.6,-0.2,-8.9[16.7 µM]
C[C@H]1CN([C@@H](C)CO)S(=O)(=O)c2ccc(-c3cccnc3)cc2O[C@H]1CN(C)C(=O)c1ccc2c(c1)OCO2,2.9,-13.9,6.2,-2.9[16.7 µM]

# The list goes on:
SMILES,Cneo AK release,C2C12 statin,UUG fidelity,miR122 inh
C[C@@H]1CN([C@H](C)CO)C(=O)Cc2cc(NC(=O)CCCCCC(=O)Nc3ccccc3N)ccc2O[C@@H]1CN(C)Cc1ccc(-c2ccccc2)cc1,1.0,28.6,1.7,-14.4[16.7 µM]
C[C@@H]1CN([C@H](C)CO)C(=O)Cc2cc(NC(=O)CCCCCC(=O)Nc3ccccc3N)ccc2O[C@H]1CN(C)Cc1ccc(-c2ccccc2)cc1,0.3,135.2*,3.1,-5.6[16.7 µM]
C[C@@H]1CN([C@@H](C)CO)C(=O)Cc2cc(NC(=O)CCCCCC(=O)Nc3ccccc3N)ccc2O[C@H]1CN(C)Cc1ccc(-c2ccccc2)cc1,-1.5,94.0*,1.6,-8.7[16.7 µM]
C[C@H]1CN([C@@H](C)CO)C(=O)Cc2cc(NC(=O)CCCCCC(=O)Nc3ccccc3N)ccc2O[C@H]1CN(C)CC1CCCCC1,8.1,147.3*,6.9,5.9[16.7 µM]
C[C@@H]1CN([C@H](C)CO)C(=O)Cc2cc(NC(=O)CCCCCC(=O)Nc3ccccc3N)ccc2O[C@H]1CN(C)CC1CC1,-5.1,6.8,-6.5,-8.3[16.7 µM]
C[C@H]1CN([C@@H](C)CO)C(=O)Cc2cc(NC(=O)CCCCCC(=O)Nc3ccccc3N)ccc2O[C@@H]1CN(C)Cc1ccc(Oc2ccccc2)cc1,-1.5,101.9*,9.0,-7.6[16.7 µM]
COC(=O)[C@H]1[C@H](CO)[C@H]2Cn3c(ccc(C4=CCCCC4)c3=O)[C@H]2N1CCC(F)(F)F,53.2,-10.7,.,.
C[C@@H]1CCCCO[C@@H](CN(C)C(=O)Nc2cccc3ccccc23)[C@H](C)CN([C@@H](C)CO)C(=O)c2cc(NS(=O)(=O)c3ccc(F)cc3)ccc2O1,-0.7,.,-4.2,-10.5[16.7 µM]
CC(=O)Oc1cc(OC(C)=O)c2c(C)cc(=O)oc2c1,6.3,97.3*,-17.8,2.4
O=C1NC(c2cccc3ccccc23)Nc2ccccc21 (centres undefined),.,.,.,149.9*
O=C(C[C@H]1CC[C@@H](NC(=O)c2cccnc2)[C@@H](CO)O1)NCc1ccncn1,-3.4,-3.4,-11.2,.
COc1ccc(NC(=O)Nc2ccc3c(c2)C(=O)N([C@H](C)CO)C[C@H](C)[C@@H](CN(C)S(=O)(=O)c2c(C)noc2C)OCCCC[C@@H](C)O3)cc1,-0.2,.,0.3,-8.2[16.7 µM]
Cc1nc2ccc(S(=O)(=O)Nc3ccccc3C)cc2s1,.,-11.5,.,127.5*
Cc1nc2ccc(S(=O)(=O)NCC(=O)N3CCCC(C)C3)cc2s1 (centres undefined),-2.7,105.6*,0.4,0.8
C[C@@H]1CN([C@@H](C)CO)C(=O)c2cc(-c3cccnc3)cnc2O[C@@H]1CN(C)C(=O)NC1CCCC1,-3.2,8.3,-3.7,2.0[16.7 µM]
C[C@@H]1CN([C@@H](C)CO)C(=O)c2cccc(NC(=O)c3cnccn3)c2O[C@H]1CN(C)S(=O)(=O)c1ccc(Cl)cc1,.,.,6.1,0.6[16.7 µM]

# Compound activity (PubChem BioAssay)
